This passage reports activity change results from PubChem BioAssay AID651819 (National Center for Advancing Translational Sciences (NCATS), 2012).

This is a selection; strong and weak results do not stand in their true shares. Activity calls are given as the source filed them. No stated cut-off is given here; in the data, active means activity change below about -30%; inactive means the rest.
On the % scale 0 is the no-effect control and ±100 the full control effect.

The assay has as its system cytosolic chaperonin (CCT/TRiC complex). The assay is described as follows: High-Throughput Screening for Modulators of Cytosolic Chaperonin Activity. Conditions: purified chaperonin ATPase assay, HTRF ADP detection, 30 min; active compounds read low. From the text:
The eukaryotic chaperonin named TRiC (for TCP-1 ring complex), also called CCT (for chaperonin containing TCP1), is an essential and conserved chaperone required for the folding and activation of 10-15% of the proteins encoded by the human genome. […] Despite its central role in cellular folding, little is known about TRiC mechanism and mode of substrate binding. Currently, no specific TRiC inhibitors are available. Given the early promise of other chaperone-directed inhibitors as cancer therapeutics (e.g. HSP90 inhibitors), inhibitors of TRiC activity may also selectively target transformed cells and have potential use as therapeutics for cancer.
To this end, a miniaturized assay was developed to screen against the Molecular Libraries Small Molecule Repository (MLSMR).
NIH Chemical Genomics Center [NCGC] […]
1.5 uL/well TRiC enzyme suspended in buffer (30 mM TRIS pH7.4, 100 mM KCl, 5 mM MgCl2, 1 mM DTT) was added with BioRAPTR FRD dispenser at 40 nM or 20 nM (based on the enzymatic activity of used batches) final concentration to a white solid bottom medium binding 1536-well plate (Greiner Bio-One, Monroe, NC), and quickly spanned down. […] Then, the plates were read using Envision reader with excitation at 330nm and emission at 615nm (Eu(3)-Cryptate donor signal) and 665nm (d2 acceptor signal). The ratio of […] was calculated for each well.
A general note: TR-FRET usually uses a lanthanide donor and a delayed reading to cut background.
On to `CCC(=O)N(c1ccccc1)C1(COC)CCN(CCc2cccs2)CC1`, for which the activity change is inactive: -0.331%.
The value for `CCC(=O)N(c1ccccc1)C1(COC)CCN(CCn2nnn(CC)c2=O)CC1` was inactive: 0.145%.
